Laboratory results taken from patent publication US4075332A (priority 1976, dated 1978).

Legend:
House fly = assay: Housefly spray test; conditions: Table IX, 2880 min
Bean aphids = assay: Aphid, Contact; conditions: Table IX, contact/systemic not stated, 2880 min
Southern army worm = assay: Southern Army Worm test (treated bean leaves); conditions: Table IX
Spider mites = assay: Mites, Contact; conditions: Table IX, contact/systemic not stated
Corn rootworm larvae = assay: Corn Root Worm soil test; conditions: Table IX, 7200 min
Mexican bean beetle = assay: Mexican Bean Beetle larvae test (treated bean leaves); conditions: Table IX

O-Ethyl S-n-Propyl S'-3-n-Propylthiopropyl Dithiophosphate
100%: Mortality Produced at 50 ppm, % - Houseflies (House fly) | Mortality Produced at 50 ppm, % - Bean Aphids (Bean aphids) | Mortality Produced at 50 ppm, % - Southern Army Worm (Southern army worm) | Mortality Produced at 50 ppm, % - Spider Mites (Spider mites) | Mortality Produced at 50 ppm, % - Mexican Bean Beetles (Mexican bean beetle)
0%: Corn Rootworm Mortality, % at 2.5 ppm (Corn rootworm larvae)
